## Measured water solubility values of organic chemicals

Water solubility is log10 of mol/L, nominally at 25 °C; higher is more soluble.

For CCCCCCCN [Heptylamine] the data give log solubility -1.85 (log10 mol/L). The entry for Cc1cc(N)nc(=O)[nH]1 [4-Amino-2-hydroxy-6-methylpyrimidine] lists log solubility -1.47 (log10 mol/L). Listed for CCCCCC(C)C [2-Methylheptane]: log solubility -4.48 (log10 mol/L). Listed for O=S(=O)([O-])c1cc(Nc2nc(Nc3ccccc3)nc(Nc3ccccc3)n2)ccc1/C=C/c1ccc(Nc2nc(Nc3ccccc3)nc(Nc3ccccc3)n2)cc1S(=O)(=O)[O-].[Na+].[Na+]: log solubility -3.826 (log10 mol/L). NNC(=O)c1ccc([N+](=O)[O-])s1 [5-Nitrothiophene-2-carbohydrazide] has log solubility -1.971 (log10 mol/L). The entry for NC(=O)Nc1ncnc2nc[nH]c12 [N-7H-Purin-6-ylurea] lists log solubility -2.754 (log10 mol/L).

C/C(=C(/CC(=O)O)C(=O)O)c1ccccc1 [(2E)-2-(1-Phenylethylidene)butanedioic acid] has log solubility -2.522 (log10 mol/L). Listed for CC(C)C1=CC(=O)C(C)CC1 (stereo unspecified) [6-Methyl-3-(propan-2-yl)cyclohex-2-en-1-one]: log solubility -1.844 (log10 mol/L). The entry for O=c1ncc2[nH]c(=O)[nH]c2[nH]1 [1H-Purine-2,8(3H,7H)-dione] lists log solubility -3.597 (log10 mol/L). Cc1ncc([N+](=O)[O-])n1C [1,2-Dimethyl-5-nitroimidazole] has log solubility -0.886 (log10 mol/L). For O=C(OCn1ncc2c(O)ncnc21)c1cccnc1 [ALLOPURINOL, 1-[NICOTINOYLOXYMETHYL]-] the data give log solubility -3.465 (log10 mol/L). Listed for O=C(OCC(=O)N(CCO)CCO)c1ccccc1 [2-[Bis(2-hydroxyethyl)amino]-2-oxoethyl benzoate]: log solubility 0.43 (log10 mol/L).

Cc1c(O)cccc1C(=O)N[C@@H](CSc1ccccc1)[C@H](O)CN1C[C@H]2CCCC[C@H]2C[C@H]1C(=O)NC(C)(C)C [Nelfinavir] has log solubility -5.473 (log10 mol/L). Listed for O=C(Oc1cc([N+](=O)[O-])c(Cl)cc1Cl)Oc1cc([N+](=O)[O-])c(Cl)cc1Cl [Bis(2,4-dichloro-5-nitrophenyl) carbonate]: log solubility -6.813 (log10 mol/L). Listed for CC(C)C(O)C(C)(C)C(=O)O (stereo unspecified) [2,2,4-Trimethyl-3-hydroxyvaleric acid]: log solubility -0.897 (log10 mol/L). COC(=O)c1c(C(=O)O)ccc(OC)c1OC [3,4-Dimethoxy-1,2-benzenedicarboxylic acid 2-methyl ester] is reported with log solubility -2.04 (log10 mol/L). CC(=O)Oc1ccccc1C(=O)OC[S+](C)[O-] (stereo unspecified) [({[2-(Acetyloxy)benzoyl]oxy}methyl)(methyl)sulfaniumolate] has log solubility -1.782 (log10 mol/L). O=c1[nH]c2[nH]cnc(=O)c2[nH]c1=O [4,6,7-Pteridinetriol] has log solubility -3.678 (log10 mol/L).

The entry for CCOC(=O)Cn1cnc2c1c(=O)n(C)c(=O)n2C lists log solubility -1.539 (log10 mol/L). N[C@H](CO)[C@H](O)c1ccc([N+](=O)[O-])cc1 [Chloramphenicol D base] has log solubility -1.912 (log10 mol/L). ClC(Cl)(Br)Br [Dibromodichloromethane] has log solubility -3.21 (log10 mol/L). CS(=O)(=O)C(S(C)(=O)=O)S(C)(=O)=O [Tris(methylsulfonyl)methane] is reported with log solubility -3.268 (log10 mol/L). For COc1ccc(O)c(C(=O)O)c1 [Benzoic acid, 2-hydroxy-5-methoxy-] the data give log solubility -1.271 (log10 mol/L). NCC(=O)NCC(=O)NCC(=O)NCC(=O)NCC(=O)NCC(=O)O [Hexaglycine] has log solubility -2.858 (log10 mol/L).

Clc1ccc(Oc2c(Cl)c(Cl)c(Cl)c(Cl)c2Cl)c(Cl)c1 [2,2',3,4,4',5,6-Heptachlorodiphenyl ether] is reported with log solubility -9.64 (log10 mol/L). Listed for NC(=O)C(O)C(O)C(=O)O (stereo unspecified) [4-Amino-2,3-dihydroxy-4-oxobutanoic acid]: log solubility -0.569 (log10 mol/L). The entry for Clc1cc(Cl)c(Oc2ccccc2Cl)cc1Cl lists log solubility -7 (log10 mol/L). Listed for C[C@@H](CN1CC(=O)NC(=O)C1)N1CC(=O)NC(=O)C1 [Dexrazone]: log solubility -1.412 (log10 mol/L). CN(C)C(=O)Nc1ccc(F)cc1 [Urea, 1,1-dimethyl-3-(p-fluorophenyl)-] has log solubility -1.489 (log10 mol/L). The entry for CC(Br)(CBr)COc1c(Br)cc(C(C)(C)c2cc(Br)c(OCC(C)(Br)CBr)c(Br)c2)cc1Br (stereo unspecified) lists log solubility -7.686 (log10 mol/L).

CC1=C(/C=C/C(C)=C/C=C/C(C)=C/C=C/C=C(C)/C=C/C=C(C)/C=C/C2=C(C)CCCC2(C)C)C(C)(C)CCC1 [Beta carotene] is reported with log solubility -5.952 (log10 mol/L). CC(SCSC(C)C(=O)O)C(=O)O (stereo unspecified) [2,2'-[Methylenebis(thio)]bis-propanoic acid] is reported with log solubility -1.827 (log10 mol/L). C/C(=N/Nc1ccc([N+](=O)[O-])cc1[N+](=O)[O-])C(=O)O [2-[(Z)-2,4-dinitro-phenylhydrazono]-propionic acid] is reported with log solubility -1.017 (log10 mol/L). Listed for Nc1cc([N+](=O)[O-])cc(Cl)c1O [2-Amino-6-chloro-4-nitrophenol]: log solubility -2.622 (log10 mol/L). Listed for CC(CCC(=O)O)CC(=O)O (stereo unspecified) [3-Methylhexanedioic acid]: log solubility 0.19 (log10 mol/L). CCCCCCCCCCCCCCCCCC(=O)OCC(COC(=O)CCCCCCCCCCCCCCCCC)OC(=O)CCCCCCCCCCCCCCCCC [Glyceryl tristearate] has log solubility -5.473 (log10 mol/L).

The first 4 entries again:

The entry for CCCCCCCN [Heptylamine] lists log solubility -1.85 (log10 mol/L).
The entry for Cc1cc(N)nc(=O)[nH]1 [4-Amino-2-hydroxy-6-methylpyrimidine] lists log solubility -1.47 (log10 mol/L).
The entry for CCCCCC(C)C [2-Methylheptane] lists log solubility -4.48 (log10 mol/L).
The entry for O=S(=O)([O-])c1cc(Nc2nc(Nc3ccccc3)nc(Nc3ccccc3)n2)ccc1/C=C/c1ccc(Nc2nc(Nc3ccccc3)nc(Nc3ccccc3)n2)cc1S(=O)(=O)[O-].[Na+].[Na+] lists log solubility -3.826 (log10 mol/L).

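OPERA's authors assembled the values from existing databases and did not measure them anew. The files give a single number for a compound and property, which may rest on several reports. How each value was measured is not recorded, so precision varies. A value may pool stereoisomers or salt forms, and the file does not say which form was measured. Some upstream entries may be estimates or bounds without being marked so.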

Data: OPERA 2.9 data sets, kmansouri/OPERA on GitHub.